{"sequences": {"note": "Chains of the proteins cited; added tags and fusions are not shown.", "UniProt P37288, whole entry, looked up": "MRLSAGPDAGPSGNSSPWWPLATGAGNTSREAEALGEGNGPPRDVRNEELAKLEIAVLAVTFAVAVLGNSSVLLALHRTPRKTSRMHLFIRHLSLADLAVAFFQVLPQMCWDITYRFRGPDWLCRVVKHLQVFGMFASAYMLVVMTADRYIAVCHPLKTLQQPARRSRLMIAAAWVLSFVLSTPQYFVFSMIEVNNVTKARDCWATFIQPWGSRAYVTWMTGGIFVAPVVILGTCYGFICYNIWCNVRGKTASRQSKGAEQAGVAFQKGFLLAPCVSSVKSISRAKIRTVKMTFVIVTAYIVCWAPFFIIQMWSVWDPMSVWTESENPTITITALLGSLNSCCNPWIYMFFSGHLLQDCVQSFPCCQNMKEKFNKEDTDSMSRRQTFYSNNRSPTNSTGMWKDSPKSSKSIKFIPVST"}, "source": "PubChem BioAssay AID2797", "about": "(The Scripps Research Institute Molecular Screening Center, 2010)", "note": "This is a selection; strong and weak results do not stand in their true shares. Activity calls are given as the source filed them.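 How the source made its calls: active means activation above the mean activation of all tested compounds plus 3 SD, per screening run (cut at about 20% in these data); inactive means the rest.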"}
{"target": "Vasopressin V1a receptor (Homo sapiens) (UniProt P37288)", "experiment": "V1R activation via calcium rise – fluorescence, CHO-V1R cells, counter-screen for OXTR agonist project, primary screen (AID 2797);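 further: signal is peak over basal fluorescence ratio across a 100 second FLIPR read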", "conditions": "Fluo-8 calcium fluorescence, agonist mode, at 3 µM, hits give high values, 0% DMSO, 100% 3 nM vasopressin"}
{"smiles": "COc1ccc(N/C(=N/P(=O)(N2CCOCC2)N2CCOCC2)N2CCOCC2)cc1", "activation": "inactive: 0.87%"}
{"smiles": "O=C(OC1CN2CCC1CC2)c1ccc(Cl)cc1", "note": "(stereo not drawn)", "activation": "inactive: -0.62%"}
{"smiles": "CS(=O)(=O)c1ccc(Cl)c(NC(=O)COC(=O)C(O)(c2ccccc2)c2ccccc2)c1", "activation": "inactive: 15.8%"}
{"smiles": "COc1cc(C(=O)NCC2(N3CCOCC3)CCCCC2)cc(Cl)c1OC(C)C", "activation": "inactive: -1.27%"}
{"smiles": "O=[As](O)(O)c1cccnc1", "activation": "inactive: -0.22%"}
{"smiles": "O=[As](O)(c1cccc(O)c1)c1cccc(O)c1", "activation": "inactive: 1.4%"}
{"smiles": "Cc1cccc(OCC(=O)OC2CN3CCC2CC3)c1", "note": "(stereo not drawn)", "activation": "inactive: 0.64%"}
{"smiles": "Cc1ccc(NCCc2c([N+](=O)[O-])cc([N+](=O)[O-])cc2[N+](=O)[O-])cc1", "activation": "inactive: -1.56%"}
{"smiles": "Nc1cccc2c([As](=O)(O)O)cccc12", "activation": "inactive: 14.7%"}
{"smiles": "CCCOP(=S)(Nc1nc(N)cc(=O)[nH]1)OCCC", "activation": "inactive: -0.36%"}
{"smiles": "CCOP(=O)(Nc1cccc2ccccc12)OCC", "activation": "inactive: 1.02%"}
{"smiles": "COc1cc(C2NCCC3(OCCO3)C2(C)C)cc(OC)c1OC", "note": "(stereo not drawn)", "activation": "inactive: 0.2%"}
{"smiles": "O=P(Nc1nccs1)(c1ccccc1)c1nc2ccccc2s1", "note": "(stereo not drawn)", "activation": "inactive: 0.94%"}
{"smiles": "O=P(Nc1nccs1)(Oc1ccccc1)Oc1ccccc1", "activation": "inactive: 0.77%"}
{"smiles": "CCOP1(=S)c2c(C)nn(CCC#N)c2N=C(c2ccccc2F)N1C", "note": "(stereo not drawn)", "activation": "inactive: -0.68%"}
{"smiles": "CS(=O)(=O)c1cc([N+](=O)[O-])c2no[n+]([O-])c2c1", "activation": "inactive: 0.85%"}
{"smiles": "Nc1ccccc1[As](=O)(O)c1ccccc1", "activation": "inactive: -0.44%"}
{"smiles": "O=C(O)COc1ccc([As](=O)(O)O)cc1[N+](=O)[O-]", "activation": "inactive: 0.47%"}
{"smiles": "NC(=O)Nc1ccc([As](=O)(O)O)cc1", "activation": "inactive: -0.47%"}
{"smiles": "CN(C(=O)Cc1ccccc1)[C@@H]1CC[C@]2(CCCO2)C[C@H]1N1CCCC1", "activation": "inactive: 0.66%"}
{"smiles": "CCOP1(=S)c2c(C)nn(CCC#N)c2N=C(c2ccc(F)cc2)N1C", "note": "(stereo not drawn)", "activation": "inactive: -1.25%"}
{"smiles": "N#CCCN(C(=O)COC(=O)C(O)(c1ccccc1)c1ccccc1)c1ccc(F)cc1", "activation": "inactive: 2.66%"}
{"smiles": "CN(C(=O)Cc1ccc(Cl)c(Cl)c1)[C@H]1CC[C@@]2(CCCO2)C[C@@H]1N1CCCC1", "activation": "inactive: 1.16%"}
{"smiles": "CN(C)C(=O)c1cc([N+](=O)[O-])cc2c1-c1c(cc([N+](=O)[O-])cc1[N+](=O)[O-])C2=O", "activation": "inactive: -1.87%"}
{"smiles": "O=[N+]([O-])c1ccc2c(c1)nnn2O", "activation": "inactive: 0.07%"}
{"smiles": "CC1CCC(C(C)C)C(OP(=O)(Nc2ccccn2)c2ccccc2)C1", "note": "(stereo not drawn)", "activation": "inactive: 1.22%"}
{"smiles": "Cc1ccc(C(=O)OC2CN3CCC2CC3)cc1", "note": "(stereo not drawn)", "activation": "inactive: -0.15%"}
{"smiles": "Cc1nn(-c2ccccc2)c2c1P(=O)(N1CCOCC1)N(C)C(c1ccccc1)=N2", "note": "(stereo not drawn)", "activation": "inactive: -0.43%"}
{"smiles": "CN(C)C1(CNC(=O)c2ccc(S(C)(=O)=O)cc2)CCCCC1", "activation": "inactive: -0.03%"}
{"smiles": "O=C(/C=C/c1ccccc1)OC1CN2CCC1CC2", "note": "(stereo not drawn)", "activation": "inactive: -0.93%"}
{"smiles": "O=P1(Nc2ncccn2)COc2ccccc2OC1", "activation": "inactive: 0.45%"}
{"smiles": "Nc1cccc([As](=O)(O)c2ccccc2)c1", "activation": "inactive: 1.67%"}
{"smiles": "O=P1(Nc2ccc(Br)cn2)COc2ccccc2OC1", "activation": "inactive: 1.24%"}
{"smiles": "NS(=O)(=O)c1cccc(NC(=O)COC(=O)C(O)(c2ccccc2)c2ccccc2)c1", "activation": "inactive: 0.56%"}
{"smiles": "Cc1ccc(OCC(=O)OC2CN3CCC2CC3)cc1", "note": "(stereo not drawn)", "activation": "inactive: 2.19%"}
{"smiles": "O=[As](O)(c1cccs1)c1cccs1", "activation": "inactive: 0.8%"}
{"smiles": "CCOP(=O)(NC(=NC(C)c1ccccc1)NC(C)c1ccccc1)OCC", "note": "(stereo not drawn)", "activation": "inactive: -0.04%"}
{"smiles": "O=P1(Nc2ccccn2)COc2ccccc2OC1", "activation": "inactive: -0.05%"}
{"smiles": "CCC1=CC2Cc3nc4ccc(Cl)cc4c(N)c3C(C1)C2", "note": "(stereo not drawn)", "activation": "inactive: 3.21%"}
{"smiles": "CN(CCCl)Cc1cc(Cl)c(NC2=NCCN2)c(Cl)c1", "activation": "inactive: -0.06%"}
{"smiles": "CCOP(=O)(Nc1ccc(C)cn1)OCC", "activation": "inactive: 0%"}
{"smiles": "CC(C)(C)C(=O)NC(Sc1ncccn1)C(Cl)(Cl)Cl", "note": "(stereo not drawn)", "activation": "inactive: -0.75%"}
{"smiles": "Clc1n[nH]nc1-c1nn[nH][15n]1", "activation": "inactive: 0.48%"}
{"smiles": "COc1ccccc1CNC(=O)COC(=O)C(O)(c1ccccc1)c1ccccc1", "activation": "inactive: 0.13%"}
{"smiles": "CC(C)/C=N\\N=C(\\N)N[N+](=O)[O-]", "activation": "inactive: 0.68%"}
{"smiles": "CN(C(=O)Cc1ccc(Cl)c(Cl)c1)[C@@H]1CCCC[C@H]1N1CCCC1", "activation": "inactive: -0.05%"}
{"smiles": "CC1(CBr)Cn2c(nc3ccccc3c2=O)S1", "note": "(stereo not drawn)", "activation": "inactive: 0.41%"}
{"smiles": "O=[As](O)(c1ccccc1Br)c1ccccc1Br", "activation": "inactive: 0.25%"}
